# Experimental data taken from patent US4579730A, “Pharmaceutical compositions containing insulin” (Hadassah Medical Organization, priority 1983, dated 1986).
# Legend:
# [1] = during 60 minutes
# [2] = in the presence of deoxycholic acid and soybean trypsin inhibitor; cited from earlier work
# [3] = Plasma 1R1 (insulin) levels in a diabetic dog after administration of insulin; type: in vivo; conditions: 0.5 u/kg intramuscular injection
# Procedure: An enterocoated capsule was prepared for oral administration of insulin to a diabetic dog.
substance,measurement,setting,value
Insulin,absorbed from the intestinal lumen into the blood stream,[1],5-10%
same,absorption from the intestine,[2],effectively absorbed
same,Insulin,[3]; 0 min,0 μm/ml
same,Insulin,[3]; 10 min,73 μm/ml
same,Insulin,[3]; 20 min,76 μm/ml
same,Insulin,[3]; 30 min,213 μm/ml
same,Insulin,[3]; 45 min,220 μm/ml
same,Insulin,[3]; 60 min,81 μm/ml
same,Insulin,[3]; 75 min,120 μm/ml
same,Insulin,[3]; 90 min,61 μm/ml
same,Insulin,[3]; 120 min,50 μm/ml
same,Insulin,[3]; 150 min,18 μm/ml
same,Insulin,[3]; 180 min,25 μm/ml
